Species on record: Rattus norvegicus
Assay: Selectivity ratio of Ki for DAT in Sprague-Dawley rat brain homogenate to Ki for SERT in Sprague-Dawley rat brain homogenate
Type: tissue-based
In short: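 Ratio of DAT Ki to SERT Ki. DAT Ki came from [3H]WIN 35,428 displacement and SERT Ki from [3H]citalopram displacement, both in rat brain tissue. Each Ki is the mean ± SEM of three experiments run in triplicate.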

## CN1CC(OCc2ccc(Cl)c(Cl)c2)(c2ccccc2)C1
  Ratio Ki: 1210

— ChEMBL document CHEMBL2401648, “3-Aryl-3-arylmethoxyazetidines. A new class of high affinity ligands for monoamine transporters” (Bioorg Med Chem Lett, 2013)
